Test: water solubility
Type: physicochemical
Conditions: complexation with a range of functionalized β-cyclodextrins and a series of other approaches

In the case of O=C1N[C@H]2[C@H](O)[C@H](O)[C@@H](O)[C@H](O)[C@@H]2c2cc3c(c(O)c21)OCO3 [pancratistatin], the “solubility improvement by complexation with functionalized β-cyclodextrins” value is reported as “did not significantly improve solubility”.

From patent US5529989A (Arizona Board of Regents acting on behalf of Arizona State …, priority 1995, dated 1996)
